Publication PMC8341974 (RSC Chemical Biology, 2021)

Biological target: T1, SIRT1 (Homo sapiens, UniProt Q96EB6)
T1 sequence (Q96EB6 193-741): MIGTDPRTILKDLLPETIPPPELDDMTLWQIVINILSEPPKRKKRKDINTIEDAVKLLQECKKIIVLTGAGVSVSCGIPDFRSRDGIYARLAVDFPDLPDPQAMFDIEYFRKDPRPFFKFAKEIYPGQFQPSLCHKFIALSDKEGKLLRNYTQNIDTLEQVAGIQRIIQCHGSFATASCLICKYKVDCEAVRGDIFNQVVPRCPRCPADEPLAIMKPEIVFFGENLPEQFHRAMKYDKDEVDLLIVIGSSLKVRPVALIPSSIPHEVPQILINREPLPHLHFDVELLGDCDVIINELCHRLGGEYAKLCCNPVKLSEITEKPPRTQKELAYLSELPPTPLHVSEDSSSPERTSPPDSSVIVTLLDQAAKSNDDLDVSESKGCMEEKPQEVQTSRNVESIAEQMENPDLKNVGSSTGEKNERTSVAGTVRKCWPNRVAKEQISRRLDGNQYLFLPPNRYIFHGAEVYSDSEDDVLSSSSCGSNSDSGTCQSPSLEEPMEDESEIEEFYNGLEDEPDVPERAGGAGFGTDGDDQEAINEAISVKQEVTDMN
Test: End-point SIRT1 deacetylation inhibition assay
Format: biochemical
Settings: 100 µM inhibitor; QPKKac 50 µM; NI = no inhibition

## CN(C)CCCCC(=O)Nc1ccc(NC(=S)NC(=O)c2ccc(C(C)(C)C)cc2)cc1 [Tenovin-6, reference compound]
  %inhibition SIRT1, QPKKac: <50% [100 μM]
